Like-named read-outs stand apart in the source and are kept apart here.
What was measured:
T4 DNA ligase = T4 DNA ligase (Enterobacteria phage T4, UniProt P00970); settings: 10 units T4 DNA ligase, room temperature 10 or 60 min
Taq DNA ligase = Taq DNA ligase (Thermus thermophilus, UniProt P26996); test: Hot Start Real-Time LCR with TBE-substituted cofactor and PDE probes; settings: 1 mM TBE-substituted NAD^+, PDE set 1+8+12+16, 20 units Taq DNA ligase, ligation 5 sec at 55° C., FIG. 18

Amino acid sequences for entries named in this document (tags omitted). A change or cut given only in a name is not applied to a line headed by its entry.
UniProt P00970: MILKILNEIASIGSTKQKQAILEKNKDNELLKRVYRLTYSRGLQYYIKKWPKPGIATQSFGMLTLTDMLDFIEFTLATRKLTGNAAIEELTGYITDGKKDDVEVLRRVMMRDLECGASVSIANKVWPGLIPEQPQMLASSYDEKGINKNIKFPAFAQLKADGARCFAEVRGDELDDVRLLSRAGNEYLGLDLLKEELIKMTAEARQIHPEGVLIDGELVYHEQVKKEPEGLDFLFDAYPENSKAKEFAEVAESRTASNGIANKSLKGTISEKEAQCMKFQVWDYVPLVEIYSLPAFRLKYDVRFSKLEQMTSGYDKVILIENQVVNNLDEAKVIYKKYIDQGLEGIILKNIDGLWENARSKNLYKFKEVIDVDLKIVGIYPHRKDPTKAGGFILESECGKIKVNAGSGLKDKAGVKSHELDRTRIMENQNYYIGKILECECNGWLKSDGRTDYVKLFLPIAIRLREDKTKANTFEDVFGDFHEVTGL
UniProt P26996: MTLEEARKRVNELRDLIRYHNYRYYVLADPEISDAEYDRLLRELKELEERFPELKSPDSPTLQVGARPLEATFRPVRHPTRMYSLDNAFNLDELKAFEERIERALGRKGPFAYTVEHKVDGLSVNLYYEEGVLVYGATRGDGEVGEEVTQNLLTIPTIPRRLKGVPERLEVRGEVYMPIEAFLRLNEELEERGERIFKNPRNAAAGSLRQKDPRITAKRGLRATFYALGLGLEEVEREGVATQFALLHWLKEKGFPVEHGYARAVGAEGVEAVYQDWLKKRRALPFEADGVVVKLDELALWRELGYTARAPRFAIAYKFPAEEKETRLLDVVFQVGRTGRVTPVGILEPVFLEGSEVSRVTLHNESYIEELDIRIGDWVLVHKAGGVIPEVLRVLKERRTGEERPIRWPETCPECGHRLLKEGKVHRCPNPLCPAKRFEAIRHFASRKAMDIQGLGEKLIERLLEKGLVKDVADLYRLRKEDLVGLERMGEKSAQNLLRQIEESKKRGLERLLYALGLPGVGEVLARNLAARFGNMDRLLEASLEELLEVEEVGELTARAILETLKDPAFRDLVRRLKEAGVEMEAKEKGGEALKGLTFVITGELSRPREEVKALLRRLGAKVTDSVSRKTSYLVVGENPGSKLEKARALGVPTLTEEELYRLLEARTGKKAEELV

What does the source list for “2′,3′-O-bis-[2-(tert-butoxy)]ethyl-adenosine-5′-triphosphate”?
formation of ligation product (T4 DNA ligase; 1 mM cofactor not thermally treated, complementary template): only traces of ligation product; formation of ligation product (T4 DNA ligase; 1 mM cofactor thermally treated at 95° C. for 2 or 20 min before ligation): ample formation of 80(+)-mer ligation product

Which “template independent ligation (TIL)” value (Taq DNA ligase) does the source give for “P^1-5′-{2′,3′-O-bis-[2-(tert-butoxy)]ethyl}-nicotinamide riboside-P^2-5′-adenosine pyrohosphate” here?
The value was “substantially reduces template independent ligation”.

— patent US20140038181A1, “CHEMICALLY SUBSTITUTED THERMOSENSITIVE PROBES AND COFACTORS FOR HOT START LIGATION” (TRILINK BIOTECHNOLOGIES, priority 2011, published 2014)
